Experimental data as given in patent publication EP0612845A2 (priority 1993, dated 1994).

The chains behind the UniProt entries cited, without tags or fusion partners.
UniProt P33535, whole entry: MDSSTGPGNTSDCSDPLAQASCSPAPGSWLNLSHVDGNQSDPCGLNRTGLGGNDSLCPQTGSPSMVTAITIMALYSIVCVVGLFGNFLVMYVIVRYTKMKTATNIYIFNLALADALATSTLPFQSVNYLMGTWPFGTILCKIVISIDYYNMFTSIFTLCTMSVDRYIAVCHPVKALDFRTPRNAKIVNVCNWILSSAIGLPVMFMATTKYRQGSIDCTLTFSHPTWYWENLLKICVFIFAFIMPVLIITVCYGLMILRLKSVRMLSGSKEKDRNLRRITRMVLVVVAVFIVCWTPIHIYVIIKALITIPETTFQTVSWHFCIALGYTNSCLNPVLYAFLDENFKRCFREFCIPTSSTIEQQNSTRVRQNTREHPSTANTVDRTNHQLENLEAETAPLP

Experiments:
[1] = biological target: T1, m-opiate receptor (mOR) cDNA RC8-1 expressed in COS cells (Rattus norvegicus, UniProt P33535); assay: biochemical; type: binding
T1 construct: expressed in transfected cells; host or cells: COS cells, transient electroporation with pcDNA1RC8-1; membranes

[2] = biological target: T1, m-opiate receptor (mOR) cDNA RC8-1 expressed in COS cells; type: binding

Compound	Kd [1] [nM]	potency in displacing binding of [³H]DAMGO [2]
C[C@@H](NC(=O)[C@@H](N)Cc1ccc(O)cc1)C(=O)NCC(=O)N(C)[C@@H](Cc1ccccc1)C(=O)NCCO [[³H]DAMGO, [D-Ala2,N-methyl-Phc4,Glyo15] enkephalin]	0.4	
D-Ala2,D-Leu5 enkephalin [DADLE]		high potency
